These results are taken from PubChem BioAssay AID1347041 (National Center for Advancing Translational Sciences (NCATS), 2019).

The list shows a part of the results, in another mix than the full data. Calls of active or inactive are those of the source. No stated cut-off is given here; in the data, active means activity change below about -30%; inconclusive means mostly about -25% to -30%; inactive means weaker than that.

The target in this assay is L-lactate dehydrogenase A chain (Homo sapiens) (UniProt P00338). Put plainly: qHTS assay for inhibitors of human lactate dehydrogenase.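 Further: values are at about 110 or 230 µM; plate controls were DMSO wells for no effect and wells without enzyme for full effect.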 The following applies: purified LDHA, NADH/diaphorase-resazurin fluorescence; active compounds read low. The source says: LDH is a key glycolytic enzyme that catalyzes the final step in the glycolytic pathway, reducing pyruvate to lactate and regenerating NAD+ equivalents necessary for continued glycolysis. LDHA has been linked to the carcinogenesis and malignancy in numerous forms of cancers and many other diseases. Consequently, both pharma and academia have invested in significant research efforts to identify small molecule therapeutics. Such attempts have been stalled or abandoned due to limited success in discovering potent and drug-like inhibitors that can be utilized to validate LDHA in vivo as a drug target, a necessary step toward advancing such a molecule towards the clinic Towards this goal we designed and performed a quantitative high-throughput screening (qHTS) campaign to discover novel compounds that are potent inhibitors of LDHA enzyme activity and cancer cell line growth.
The assay was optimized to 1536-well plates. […] Plates were immediately transferred to a ViewLux microplate imager (PerkinElmer, Waltham, MA), and any resulting resorufin fluorescence was measured (ex540, em590 nm) at 0 and 20 minutes. Fluorescence was normalized using enzyme-free and DMSO-treated control wells on each plate.
A general note: In qHTS, concentration-response curves come from the screen itself.
Turning to `CCC(=O)N(c1ccccc1)C1(COC)CCN(CCn2nnn(CC)c2=O)CC1`, the activity change was inactive: -10.3%.

Turning to `CCC(=O)N(c1ccccc1)C1(COC)CCN(CCc2cccs2)CC1`, the activity change is inactive: -4.62%.
